Results taken from ChEMBL document CHEMBL4007396, “New diphenylmethane derivatives as peroxisome proliferator-activated receptor alpha/gamma dual agonists endowed with anti-proliferative effects and mitochondrial activity” (Eur J Med Chem, 2017).

Assays:
Format in all cases: cell-based
[1] = target: T1, Peroxisome proliferator-activated receptor alpha (Homo sapiens) (UniProt Q07869); experiment: Potency index, ratio of Wy-14,643 concentration to compound concentration required for PPARalpha transcription positive regulatory loop mediated PPARalpha protein expression level in human HepG2 cells
T1 sequence (whole entry): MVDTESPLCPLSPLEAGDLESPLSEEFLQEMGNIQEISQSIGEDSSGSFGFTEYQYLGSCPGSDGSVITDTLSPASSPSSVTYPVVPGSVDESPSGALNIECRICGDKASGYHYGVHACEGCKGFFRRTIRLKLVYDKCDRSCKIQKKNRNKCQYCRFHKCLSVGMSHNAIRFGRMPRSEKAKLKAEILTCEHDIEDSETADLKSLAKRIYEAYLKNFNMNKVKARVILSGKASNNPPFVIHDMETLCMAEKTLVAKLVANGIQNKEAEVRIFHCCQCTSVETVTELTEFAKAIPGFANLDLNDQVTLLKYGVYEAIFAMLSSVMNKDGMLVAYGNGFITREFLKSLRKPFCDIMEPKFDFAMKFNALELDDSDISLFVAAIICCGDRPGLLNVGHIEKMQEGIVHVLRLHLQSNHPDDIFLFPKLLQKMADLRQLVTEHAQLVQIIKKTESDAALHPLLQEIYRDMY

[2] = target: T1, Peroxisome proliferator-activated receptor alpha (Homo sapiens); experiment: Potency index, ratio of Wy-14,643 concentration to compound concentration required for PPARalpha transcription positive regulatory loop mediated upregulation of PPARalpha mRNA level in human HepG2 cells
[3] = target: T1, Peroxisome proliferator-activated receptor alpha (Homo sapiens); experiment: Potency index, ratio of Wy-14,643 concentration to compound concentration required for agonist activity at PPARalpha in human HepG2 cells assessed as increase in CPT1 mRNA level
[4] = target: T1, Peroxisome proliferator-activated receptor alpha (Homo sapiens); experiment: Potency index, ratio of Wy-14,643 concentration to compound concentration required for agonist activity at PPARalpha in human HepG2 cells assessed as increase in CAC mRNA level
[5] = target: T1, Peroxisome proliferator-activated receptor alpha (Homo sapiens); experiment: Potency index, ratio of Wy-14,643 concentration to compound concentration required for agonist activity at PPARalpha in human HepG2 cells assessed as increase in CPT1 protein expression level
[6] = target: T1, Peroxisome proliferator-activated receptor alpha (Homo sapiens); experiment: Potency index, ratio of Wy-14,643 concentration to compound concentration required for agonist activity at PPARalpha in human HepG2 cells assessed as increase in CAC protein expression level
[7] = target: T1, Peroxisome proliferator-activated receptor alpha (Homo sapiens); experiment: Potency index, ratio of Wy-14,643 concentration to compound concentration required for agonist activity at PPARalpha in human HepG2 cells assessed as increase in mitochondrial mass

Measured: Ratio

Cc1oc(-c2ccccc2)nc1COc1ccc(Cc2ccc(OC(C)C(=O)O)cc2)cc1 (configuration not stated)
50: [1] | [2] | [3] | [4] | [5] | [6] | [7]
